Data on one molecule can be found in ChEMBL document CHEMBL5584231, “Rational design of a new short anticancer peptide with good potential for cancer treatment” (Eur J Med Chem, 2024).

The test is described as follows: Cytotoxicity against RG cells (unknown origin) assessed as inhibition of cell growth incubated for 1 hr by MTT assay. The format is functional, cell-based.

One may read the IC50 as the concentration at which inhibition is half-maximal. Take `CC[C@H](C)[C@H](NC(=O)CN)C(=O)NCC(=O)N[C@@H](C)C(=O)N[C@H](C(=O)N[C@@H](CC(C)C)C(=O)N[C@@H](CCCCN)C(=O)N[C@H](C(=O)N[C@@H](CC(C)C)C(=O)N[C@H](C(=O)N[C@H](C(=O)NCC(=O)N[C@@H](CC(C)C)C(=O)N1CCC[C@H]1C(=O)N[C@@H](C)C(=O)N[C@@H](CC(C)C)C(=O)N[C@H](C(=O)N[C@@H](CO)C(=O)N[C@@H](Cc1c[nH]c2ccccc12)C(=O)N[C@H](C(=O)N[C@@H](CCCCN)C(=O)N[C@@H](CCCNC(=N)N)C(=O)N[C@@H](CCCCN)C(=O)N[C@@H](CCCNC(=N)N)C(=O)N[C@@H](CCC(N)=O)C(=O)N[C@@H](CCC(N)=O)C(N)=O)[C@@H](C)CC)[C@@H](C)CC)[C@@H](C)O)[C@@H](C)O)C(C)C)C(C)C` [MELITTIN]: the IC50 was determined as 1.56 µM.
